US20090149436A1, “CASPASE INHIBITOR” (Astellas Pharma Inc., priority 2004, published 2009)

Target: T1, human recombinant caspase 3 (Homo sapiens, UniProt P42574)
T1 construct: purchased CALBIOCHEM 235417
T1 sequence (P42574 29-175 limits assumed): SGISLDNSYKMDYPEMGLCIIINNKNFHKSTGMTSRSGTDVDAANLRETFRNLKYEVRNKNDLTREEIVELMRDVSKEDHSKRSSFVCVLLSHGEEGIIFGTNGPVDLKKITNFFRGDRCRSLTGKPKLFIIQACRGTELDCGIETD
T1 sequence (P42574 176-277 limits assumed): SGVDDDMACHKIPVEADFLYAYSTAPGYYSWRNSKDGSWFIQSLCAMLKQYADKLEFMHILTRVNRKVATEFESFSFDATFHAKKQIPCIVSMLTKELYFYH
Test: Assay of inhibitory activity against human recombinant caspase 3 (fluorogenic substrate Ac-DEVD-MCA)
Assay type: biochemical
Description: A reaction buffer containing 10% sucrose, 0.1% CHAPS, 2 mM dithiothreitol in 25 mM HEPES (pH 7.5) is prepared. A pharmaceutical agent-diluted solution (50 μl) containing the above-mentioned test compound diluted in the buffers and 4 μM buffer solution (25 μl) of a substrate Ac-Asp-Glu-Val-Asp-4-methyl-coumaryl-7-amide (PEPTIDE INSTITUTE, INC.) are dispensed to a light shading type 96 well microplate per well. Thereto is added 25 μl of human recombinant caspase 3 (CALBIOCHEM catalog No. 235417), 500 U/ml, to start the reaction. After incubation at room temperature for 2 hr. the reaction quench buffer (0.1 M monochloroacetic acids 0.03 M sodium acetate, 0.15 M acetic acid (pH 4.3)) is added by 100 μl per well. The fluorescence of 7-amino-4-methylcoumarin ([…]) released by the enzyme reaction is measured using a fluorophotometer (Ex. 355 nm, Em. 460 nm). The enzyme activity is calculated from the analytical curve based on the fluorescence strength of AMC (PEPTIDE INSTITUTE, INC.).
The compounds of the above-mentioned 1. were examined for the activity inhibitory action on human recombinant caspase 3. In this experiment, acetyl-L-aspartyl-L-glutamyl-L-valyl-L-aspart-1-al (DEVD) (PEPTIDE INSTITUTE, INC.) was used as the standard product of caspase 3 inhibitor.
Using dicyanocobinamide as a caspase 3 inhibitor, experiments similar to the above-mentioned Example 1 were performed with different substrate concentrations (2, 4, 6 and 8 nM). The experiment results are shown in FIG. 3 as Lineweaver-Burk plot.

CC(=O)N[C@@H](CC(=O)O)C(=O)N[C@@H](CCC(=O)O)C(=O)N[C@H](C(=O)N[C@H](C=O)CC(=O)O)C(C)C [DEVD, acetyl-L-aspartyl-L-glutamyl-L-valyl-L-aspart-1-al, reference compound]
pIC50 (FIG. 1 lower panel, read-out: IC50, inhibitory activity against human recombinant caspase 3): 8.45
pIC50 (FIG. 1 upper panel, read-out: IC50, inhibitory activity against human recombinant caspase 3): 8.28
pIC50 (FIG. 2, read-out: IC50, caspase (Enzyme Specificity)): 8.28

pIC50: −log10 of the molar value. Read-outs that look alike come from different tables or passages of the source.
